Sampled rows, rich in hits. Any-hit rate of the full collection: about 1.3%.
ARNT-TACC3 inh: disrupts binding between human ARNT and TACC3; AlphaScreen His-ARNT PAS-B/GST-TACC3 binding, luminescence; TACC3 fragment carries E629A point mutation; Q9Y6A5; inhibition, % at 9.99 µM; AID 623870; 390,000 compounds, 0.66% hits;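 active = mean inhibition of replicates at least 50% and at least half of replicates each reaching 50%; inconclusive = half or more replicates reach 50% but mean below 50%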;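 also: 0% = complete ARNT plus TACC3 wells and 100% = ARNT alone without TACC3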
ERAP1 HTS inh: inhibitors of human ERAP1 aminopeptidase; Q9NZ08; recombinant ERAP1, Leu-AMC fluorescence, 60 min; inhibition, % at 10.7 µM; 340,000 compounds, 0.15% hits; AID 652197;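 active = mean replicate inhibition of at least 30%, or all replicates individually reaching that 30% level; inactive = mean below 30% and not every replicate reaching it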;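 also: 0% = neutral control wells and 100% = L-leucinethiol positive control wells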
E-selectin induc: induces E-selectin expression in human endothelial cells | P16581 | HUVEC E-selectin immunofluorescence imaging; normalized: neutral wells 0, TNF-alpha wells 100 | activation, % at 7.58 µM | 260,000 compounds, 0.37% hits | AID 686992;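 active = mean E-selectin-positive cell signal at least 10% of the positive control, reached in at least 60% of replicates, without over 20% cell loss; inconclusive = no rule given, readout overlaps actives, possibly toxicity-flagged; inactive = the rest, including those meeting only one limit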
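Assay system: HUVEC, human umbilical vein endothelial cells / Amount: 3,000 HUVEC/well / Controls: TNF-alpha positive control, DMSO neutral control / Compound dosing: single concentration / Medium: EGM-2 over gelatin coat / Evaluation: percent E-selectin-positive cells / Signal: immunofluorescence imaging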
MLL AF4-AF9 inh: blocks AF4 peptide binding to human AF9 | AlphaScreen, biotin-AF4 peptide binding to FLAG-AF9 | inhibition, % at 10 µM | P42568 | 350,000 compounds, 0.47% hits | AID 651704;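 active = every replicate reaching a set inhibition limit, whatever the replicate mean, cut at about 25% in these data; inconclusive = mean inhibition reaches that limit but some replicates miss it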;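 also: 0% = plate neutral control median and 100% = total signal loss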
S100A4 MyoIIA: S100A4-myosin IIA interaction inhibition. S100A4/TAMRA-MyoIIA peptide fluorescence polarization. inhibition, % at 10.7 µM. 360,000 compounds, 0.14% hits;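 active = mean inhibition of at least 70% across replicates, with every replicate also reaching that level; inconclusive = mean inhibition reaches 70% but some replicates fall short; inactive = mean inhibition below 70%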
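Material: S100A4 monomer protein / Buffer or medium: 50 mM HEPES pH 7.2, 10 mM CaCl2, 100 mM KCl / Times: 5 min incubation before reading / Benchmarks: neutral control DMSO, positive control TFP / Reagent: labelled myosin peptide probe, 5 nM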
UUG fidelity: modulators of yeast start codon fidelity, primary screen, whole organism, S. cerevisiae, single point, plate reader. S. cerevisiae UUG-firefly luciferase reporter, luminescence/redox ratio. activity score, % at 18.7 µM. actives 0.13% (n = 350,000);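 active = replicate mean at a twofold rise or more, about +100% in these data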;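 note: firefly luciferase made from a UUG start codon reports start codon fidelity; reporter light over untreated wells divided by growth signal over untreated wells; some hits fall short of that in this replicate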
* = called active by the depositor; ? = inconclusive; / = no result given; ! = not active in a repeat.

| cpd | Structure | ARNT-TACC3 inh | ERAP1 HTS inh | E-selectin induc |
| --- | --- | --- | --- | --- |
| 1 | O=C(Oc1ccc(F)c(F)c1)c1ccc2c(=O)n3c(nc2c1)CCC3 | -2 | 4 | 2 |
| 2 | CC(C)c1ccc(OC(=O)c2ccc3c(=O)n4c(nc3c2)CCC4)cc1 | -4 | 78* | / |
| 3 | Cc1cc(C)c2sc(C)[n+](CCCS(=O)(=O)[O-])c2c1 | 11 | 97* | -1 |
| 4 | O=C(NCc1ccccc1Cl)c1cc(=O)[nH]c2ccccc12 | -17 | 48* | / |
| 5 | C[C@@H]1CCCCO[C@H](CN(C)S(=O)(=O)c2ccc(Cl)cc2)[C@H](C)CN([C@H](C)CO)C(=O)c2cc(NC(=O)Cc3ccccc3)ccc2O1 | 20 | 2 | 0 |
| 6 | [O-][n+]1cccc2cccc(O)c21 | 53* | 1 | 1 |
| 7 | C[n+]1cccc2cccc([O-])c21 | 42 | -1 | / |
| 8 | CSc1cccc(NC(=O)CCCNC(=O)c2ccc(Cl)cc2)c1 | -9 | 51* | 0 |
| 9 | CC(=O)c1cccc(NC(=O)CCCNC(=O)c2ccc(Cl)cc2)c1 | -2 | -4 | 1 |
| 10 | Cc1ccccc1Nc1c(-c2ccccn2)nc2c(C)cccn12 | 27 | / | 0 |
| 11 | Cc1ccccc1Nc1c(-c2ccc(N3CCOCC3)cc2)nc2ncccn12 | -3 | / | 0 |
| 12 | CCN(CC)CCC(c1ccc(N(C)C)cc1)c1c(O)cc(OC)cc1OC (stereo not drawn) | 30* | / | 1 |

| cpd | MLL AF4-AF9 inh | S100A4 MyoIIA | UUG fidelity |
| --- | --- | --- | --- |
| 1 | -4 | -1 | -14 |
| 2 | 3 | 29 | -14 |
| 3 | -5 | -16 | 7 |
| 4 | 0 | -5 | -10 |
| 5 | 0 | 13 | 0 |
| 6 | -5 | -2 | -33 |
| 7 | -1 | 22 | / |
| 8 | -1 | -5 | 12 |
| 9 | 0 | -11 | -17 |
| 10 | 34* | 1 | -27 |
| 11 | -9 | -1 | / |
| 12 | / | / | -7 |

(continued)
| cpd | Structure | ARNT-TACC3 inh | ERAP1 HTS inh | E-selectin induc |
| --- | --- | --- | --- | --- |
| 13 | C[C@H](CO)N1C[C@H](C)[C@@H](CN(C)C(=O)NC2CCCCC2)Oc2ccc(NS(=O)(=O)c3ccccc3)cc2C1=O | 2 | -4 | 49*! |
| 14 | C[C@@H]1CN([C@H](C)CO)C(=O)c2cc(NS(=O)(=O)c3ccccc3)ccc2O[C@H]1CN(C)C(=O)NC1CCCCC1 | 7 | -4 | 40* |
| 15 | C[C@H]1CN([C@@H](C)CO)C(=O)c2cc(NS(=O)(=O)c3ccccc3)ccc2O[C@H]1CN(C)C(=O)NC1CCCCC1 | -2 | 1 | -6 |
| 16 | CCCNC(=O)C[C@H]1CC[C@@H]2[C@@H](COc3ccc(NC(=O)Cc4ccccc4)cc3C(=O)N2C)O1 | 1 | 0 | 0 |
| 17 | CCCN1C[C@@H](C)[C@H](OC)CN(C)C(=O)c2ccc(NC(=O)c3cccc(F)c3)cc2OC[C@H]1C | -7 | 2 | 0 |
| 18 | CO[C@H]1CN(C)C(=O)c2cc(NC(C)=O)ccc2OC[C@@H](C)N(Cc2ccccn2)C[C@@H]1C | 0 | -2 | 0 |
| 19 | CO[C@@H]1CN(C)C(=O)c2ccc(NC(C)=O)cc2OC[C@H](C)N(Cc2cc(F)ccc2F)C[C@@H]1C | 13 | -2 | 0 |
| 20 | CCCN1C[C@H](C)[C@@H](OC)CN(C)C(=O)c2ccc(NC(=O)c3cccc(F)c3)cc2OC[C@@H]1C | -9 | 5 | 0 |
| 21 | CO[C@H]1CN(C)C(=O)c2cc(NC(C)=O)ccc2OC[C@H](C)N(Cc2ccccn2)C[C@H]1C | 20 | 0 | 0 |
| 22 | CCCN1C[C@H](C)[C@H](OC)CN(C)C(=O)c2ccc(NC(=O)c3cccc(F)c3)cc2OC[C@H]1C | -8 | 5 | 0 |
| 23 | CC(C)C(=O)Nc1ccc2c(c1)C(=O)N(C)[C@@H]1CC[C@@H](CC(=O)O)O[C@@H]1CO2 | -7 | 1 | 0 |
| 24 | CCCN1C[C@H](C)[C@@H](OC)CN(C)C(=O)c2ccc(NC(=O)c3cccc(F)c3)cc2OC[C@H]1C | -9 | 10 | 0 |

| cpd | MLL AF4-AF9 inh | S100A4 MyoIIA | UUG fidelity |
| --- | --- | --- | --- |
| 13 | -3 | 4 | 6 |
| 14 | -3 | 12 | 22 |
| 15 | -3 | 15 | -6 |
| 16 | 1 | 0 | 9 |
| 17 | ? | -1 | 11 |
| 18 | 1 | 1 | -23 |
| 19 | 5 | 105* | 11 |
| 20 | 39* | -5 | 5 |
| 21 | 3 | 141* | 5 |
| 22 | 39* | -1 | 11 |
| 23 | -1 | 8 | -3 |
| 24 | 45* | 1 | 5 |

Gathered by group, the compounds so far containing a Cl atom (four)
| cpd | Structure | ARNT-TACC3 inh | ERAP1 HTS inh | E-selectin induc |
| --- | --- | --- | --- | --- |
| 4 | O=C(NCc1ccccc1Cl)c1cc(=O)[nH]c2ccccc12 | -17 | 48* | / |
| 5 | C[C@@H]1CCCCO[C@H](CN(C)S(=O)(=O)c2ccc(Cl)cc2)[C@H](C)CN([C@H](C)CO)C(=O)c2cc(NC(=O)Cc3ccccc3)ccc2O1 | 20 | 2 | 0 |
| 8 | CSc1cccc(NC(=O)CCCNC(=O)c2ccc(Cl)cc2)c1 | -9 | 51* | 0 |
| 9 | CC(=O)c1cccc(NC(=O)CCCNC(=O)c2ccc(Cl)cc2)c1 | -2 | -4 | 1 |

| cpd | MLL AF4-AF9 inh | S100A4 MyoIIA | UUG fidelity |
| --- | --- | --- | --- |
| 4 | 0 | -5 | -10 |
| 5 | 0 | 13 | 0 |
| 8 | -1 | -5 | 12 |
| 9 | 0 | -11 | -17 |

Next part
| cpd | Structure | ARNT-TACC3 inh | ERAP1 HTS inh | E-selectin induc |
| --- | --- | --- | --- | --- |
| 25 | O=C(Nc1ccccc1Cl)C1(c2ccccc2)CC1(Cl)Cl (stereo not drawn) | -2 | / | / |
| 26 | CC(=O)c1ccc(NC(=O)C2(c3ccccc3)CC2(Cl)Cl)cc1 (stereo not drawn) | -8 | -3 | / |
| 27 | COc1ccc(NC(=O)Nc2ccc3c(c2)C(=O)N([C@@H](C)CO)C[C@@H](C)[C@@H](CN(C)C(=O)NC(C)C)O3)cc1 | -6 | 0 | 0 |
| 28 | Cc1ccccc1NC(=O)CSc1nnc(-c2ccco2)c(-c2ccco2)n1 | 4 | / | / |
| 29 | Cc1cccc(C)c1NC(=O)CSc1nnc(-c2ccco2)c(-c2ccco2)n1 | 57* | / | / |
| 30 | Cn1cc(C=C2C(=O)CC(C)(C)CC2=O)c2ccccc21 | / | 3 | / |
| 31 | Cn1cc(C=C2C(=O)OC3(CCCCC3)OC2=O)c2ccccc21 | 7 | -2 | 0 |
| 32 | C[C@@H]1CCCCO[C@H](CN(C)C(=O)CCC(F)(F)F)[C@H](C)CN([C@H](C)CO)C(=O)c2cc(NS(=O)(=O)c3cccs3)ccc2O1 | -1 | / | 0 |
| 33 | CN1C(=O)c2cc(NC(=O)c3ccccc3F)ccc2OC[C@@H]2O[C@H](CC(=O)NCc3ccc4c(c3)OCO4)CC[C@H]21 | -12 | 6 | 0 |
| 34 | Cc1nnc(N/N=C/C(C)c2ccccc2)[nH]c1=O (stereo not drawn) | 63* | -2 | 0 |
| 35 | CCCNC(=O)[C@@H]1[C@@H](CO)[C@@H]2Cn3c(cccc3=O)[C@H]1N2CCC(F)(F)F | 5 | 3 | 0 |
| 36 | CCCN1[C@@H]2c3ccc(-c4cccnc4)c(=O)n3C[C@H]1[C@H](CO)[C@H]2C(=O)NCCc1cn(C)cn1 | 1 | 55* | -1 |

| cpd | MLL AF4-AF9 inh | S100A4 MyoIIA | UUG fidelity |
| --- | --- | --- | --- |
| 25 | / | / | / |
| 26 | 33* | 0 | / |
| 27 | 4 | 8 | 9 |
| 28 | / | / | -8 |
| 29 | / | / | -20 |
| 30 | 11 | -4 | / |
| 31 | 26* | -8 | -9 |
| 32 | / | / | 18 |
| 33 | 0 | 5 | / |
| 34 | 3 | -6 | / |
| 35 | 2 | 123* | / |
| 36 | 1 | 7 | / |

The results go on:
| cpd | Structure | ARNT-TACC3 inh | ERAP1 HTS inh | E-selectin induc |
| --- | --- | --- | --- | --- |
| 37 | CC=Cc1ccc2n(c1=O)C[C@H]1[C@H](CO)[C@@H](C(=O)NCC3CC3)[C@@H]2N1Cc1cccnc1 (mixture of isomers) | / | 3 | 0 |
| 38 | C[C@@H]1CN([C@@H](C)CO)S(=O)(=O)c2ccc(C3=CCCC3)cc2O[C@@H]1CN(C)Cc1ccccc1 | 11 | 1 | 0 |
| 39 | CC1CCCCN1Cc1c(O)ccc2c(=O)c(-c3ccc(Br)cc3)coc12 (stereo not drawn) | 6 | -3 | 40* |
| 40 | CSCCC1NC(=O)C(C(C)=NNC(N)=O)=C1O (stereo not drawn) | 74* | 0 | 0 |
| 41 | CC(=Nc1ccccc1)C1=C(O)C(Cc2ccccc2)NC1=O (stereo not drawn) | -3 | -6 | 0 |
| 42 | CC(C)NC(=O)N(C)C[C@@H]1Oc2c(NC(=O)c3ccc(-c4nccs4)cc3)cccc2C(=O)N([C@@H](C)CO)C[C@H]1C | / | -1 | 52* |

| cpd | MLL AF4-AF9 inh | S100A4 MyoIIA | UUG fidelity |
| --- | --- | --- | --- |
| 37 | -4 | 122* | / |
| 38 | 9 | 2 | -4 |
| 39 | 0 | -5 | -11 |
| 40 | -1 | -2 | / |
| 41 | -2 | 4 | / |
| 42 | -10 | 1 | 2 |

High-throughput results (PubChem BioAssay)
